From ChEMBL document CHEMBL3352205, “Indazole- and indole-5-carboxamides: selective and reversible monoamine oxidase B inhibitors with subnanomolar potency” (J Med Chem, 2014)

Species: Homo sapiens
Assay: Selectivity index, ratio of IC50 for human recombinant MAO-A to IC50 for human recombinant MAO-B

SMILES: O=C(Nc1ccc(Cl)c(Cl)c1)c1ccc2[nH]ccc2c1
- Ratio IC50: 5730
